From ChEMBL document CHEMBL1255197, “Surface plasmon resonance biosensor based fragment screening using acetylcholine binding protein identifies ligand efficiency hot spots (LE hot spots) by deconstruction of nicotinic acetylcholine receptor α7 ligands” (J Med Chem, 2010)

Chains of the proteins cited; added tags and fusions are not shown.
UniProt P58154, whole entry: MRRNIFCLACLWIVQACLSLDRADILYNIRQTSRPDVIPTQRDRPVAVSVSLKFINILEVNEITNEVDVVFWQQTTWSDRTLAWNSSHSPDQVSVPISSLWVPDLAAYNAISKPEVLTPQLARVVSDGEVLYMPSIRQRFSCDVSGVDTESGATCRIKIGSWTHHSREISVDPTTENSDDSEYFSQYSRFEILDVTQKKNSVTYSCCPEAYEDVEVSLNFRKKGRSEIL

Target: Acetylcholine-binding protein (Lymnaea stagnalis, UniProt P58154)

CN1CCC[C@H]1c1cccnc1 [NICOTINE]
Ki: 331 nM
